Source: PMC5844868, “Increased intracellular activity of MP1102 and NZ2114 against Staphylococcus aureus in vitro and in vivo” (Scientific Reports, 2018)

Legend:
MRSA = conditions: against MRSA; cited from earlier work
Excerpt: (§1) This study is the first evaluation of the intracellular anti-staphylococcal properties of the NZ2114 derivative MP1102 using both in vitro and in vivo methods. […] As a corresponding in vivo mouse model, RAW 264.7 macrophages were chosen to evaluate in vitro intracellular activity in this study.

S. aureus in THP-1 cells = conditions: against MRSA in THP-1 cells; cited from earlier work
Excerpt: as §1

MSSA ATCC25923 = experiment: Mouse peritonitis model; type: in vivo; conditions: 20 mg/kg and 10 mg/kg dose, data not shown
Protocol: The mice were infected by peritoneal injection with different S. aureus strains, including MSSA ATCC25923 (5 × 10^8 CFU), MRSA ATCC43300 (5 × 10^8 CFU) and high virulent CVCC546 (5 × 10^7 CFU), and treated with a single dose of drugs ([…], 20, 30 and 40 mg/kg for ATCC43300 and CVCC546) at 10 min after infection. Twenty-four hours after treatment, the mice were killed and peritoneal fluids were obtained by washing with 5 ml ice-cold PBS. The total number of bacteria in the fluids was determined before any further procedures and then divided into two equal fractions of 1.5 ml each for the following purposes: i) for extracellular bacteria quantification, one fraction was centrifuged for 10 min at 4 °C (300 g) and the supernatant CFU count was quantified and ii) for intracellular bacteria quantification, the other fraction was centrifuged for 5 min at 4 °C (1,000 rpm). The cells were collected and treated with 100 μg/ml gentamicin (MSSA ATCC25923) or 50 μg/ml lysostaphin (MRSA ATCC43300 and high virulent CVCC546) for 1 h at 37 °C to kill extracellular bacteria. The cells were washed twice with ice-cold PBS to remove any anti-extracellular bacterial drug. Subsequently, the cells were lysed and counted as described above for the in vitro experiment method[14],[54].

IL-1β = experiment: Cytokine ELISA in S. aureus-infected RAW 264.7 cells; type: cell-based, mouse; conditions: 25 μg/ml, 24 h after infection with MRSA ATCC43300; range over treatments
Protocol: To investigate the effects of MP1102 and NZ2114 on cytokine levels in cells infected with S. aureus, RAW264.7 cells (2.5 × 10^5 cells/ml) seeded into 12-well plates were incubated with MRSA ATCC43300 (MOI = 100:1) for 30 min followed by treatment with 50 μg/ml lysostaphin for 1 h to remove non-phagocytosed bacteria. The cells were then treated with 25 μg/ml MP1102, NZ2114 and vancomycin for 12 h and 24 h. Cell-free culture supernatants were collected and the concentrations of cytokines (TNF-α, IL-1β and IL-10) were determined by Jiaxuan Biotech. Co. Ltd. (Beijing, China) using an ELISA kit[58],[59].

CC[C@H](C)[C@@H]1NC(=O)[C@H](CO)NC(=O)[C@H](CCCCN)NC(=O)[C@@H]2CSSC[C@@H](C(=O)N[C@@H](Cc3ccc(O)cc3)C(=O)O)NC(=O)[C@H](CCCCN)NC(=O)[C@@H]3CSSC[C@H](NC(=O)[C@H](CCCNC(=N)N)NC(=O)[C@H](CC(C)C)NC(=O)[C@H](CC(=O)O)NC(=O)[C@H](CC(=O)O)NC(=O)[C@H](CCC(=O)O)NC(=O)[C@H](CC(N)=O)NC(=O)[C@H](Cc4c[nH]c5ccccc45)NC(=O)[C@@H]4CCCN4C(=O)CNC(=O)[C@H](CC(N)=O)NC(=O)[C@@H](NC(=O)CNC(=O)[C@H](Cc4ccccc4)NC(=O)CN)CSSC[C@H](NC(=O)[C@H](Cc4ccc(O)cc4)NC(=O)CNC(=O)CNC(=O)[C@H](CCCCN)NC(=O)[C@H](Cc4ccc(O)cc4)NC(=O)CNC(=O)[C@H](CCCCN)NC1=O)C(=O)N[C@@H](C)C(=O)N[C@@H](CCCCN)C(=O)NCC(=O)NCC(=O)N[C@@H](Cc1ccccc1)C(=O)N[C@@H](C(C)C)C(=O)N3)C(=O)N[C@@H](Cc1c[nH]cn1)C(=O)N[C@@H](CC(N)=O)C(=O)N[C@@H](Cc1c[nH]cn1)C(=O)N2 [NZ2114]
relative Emax, extracellular (MRSA): 4.58 log CFU | relative Emax, intracellular (S. aureus in THP-1 cells): 0.93 log CFU | colonies on the plates (MSSA ATCC25923): no colonies were observed | suppressed production of IL-1β (IL-1β): 18.7 to 49.5 pg/mL
